Data as given in article PMC7575681 (EJNMMI Research, 2020).
Where two headings read alike, the source gives them in different places. Marks after values point to notes of the source that are not given here.

With ^18F-deoxy-thiamine the biodistribution (ICR female mice, spleen, 240 min) was 0.22±0.03 IA%/g, the biodistribution (ICR female mice, stomach, 5 min) was 7.68±2.27 IA%/g and the biodistribution (ICR female mice, stomach, 15 min) was 3.36±0.67 IA%/g. For the same substance, the biodistribution (ICR female mice, stomach, 30 min) was 2.24±0.43 IA%/g, the biodistribution (ICR female mice, stomach, 60 min) was 2.33±0.38 IA%/g and the biodistribution (ICR female mice, stomach, 120 min) was 1.37±0.10 IA%/g. For the same substance, the biodistribution (ICR female mice, stomach, 240 min) was 0.45±0.09 IA%/g, the biodistribution (ICR male mice, blood, 5 min) was 2.39±0.60 IA%/g and the biodistribution (ICR male mice, blood, 15 min) was 1.53±0.36 IA%/g. For the same substance, the biodistribution (ICR male mice, blood, 30 min) was 0.86±0.05 IA%/g, the biodistribution (ICR male mice, blood, 60 min) was 0.39±0.03 IA%/g and the biodistribution (ICR male mice, blood, 120 min) was 0.30±0.01 IA%/g. The biodistribution (ICR male mice, blood, 240 min) was 0.12±0.004 IA%/g, the biodistribution (ICR male mice, brain, 5 min) was 1.38±0.46 IA%/g and the biodistribution (ICR male mice, brain, 15 min) was 1.51±0.16 IA%/g. It also gave a biodistribution (ICR male mice, brain, 30 min) of 0.88±0.15 IA%/g, a biodistribution (ICR male mice, brain, 60 min) of 0.48±0.05 IA%/g and a biodistribution (ICR male mice, brain, 120 min) of 0.41±0.06 IA%/g. The biodistribution (ICR male mice, brain, 240 min) was 0.10±0.005 IA%/g, the biodistribution (ICR male mice, duodenum, 5 min) was 17.98±5.99 IA%/g and the biodistribution (ICR male mice, duodenum, 15 min) was 11.24±0.49 IA%/g. For the same substance, the biodistribution (ICR male mice, duodenum, 30 min) was 6.34±1.02 IA%/g, the biodistribution (ICR male mice, duodenum, 60 min) was 1.75±0.23 IA%/g and the biodistribution (ICR male mice, duodenum, 120 min) was 2.22±0.74 IA%/g. The biodistribution (ICR male mice, duodenum, 240 min) was 1.94±0.41 IA%/g, the biodistribution (ICR male mice, fat, 5 min) was 1.67±0.61 IA%/g and the biodistribution (ICR male mice, fat, 15 min) was 1.61±0.93 IA%/g. It also gave a biodistribution (ICR male mice, fat, 30 min) of 0.49±0.11 IA%/g, a biodistribution (ICR male mice, fat, 60 min) of 0.44±0.08 IA%/g and a biodistribution (ICR male mice, fat, 120 min) of 0.40±0.05 IA%/g. The biodistribution (ICR male mice, fat, 240 min) was 0.29±0.08 IA%/g, the biodistribution (ICR male mice, fumur, 5 min) was 5.60±2.73 IA%/g and the biodistribution (ICR male mice, fumur, 15 min) was 2.95±0.44 IA%/g. It also gave a biodistribution (ICR male mice, fumur, 30 min) of 3.15±0.16 IA%/g, a biodistribution (ICR male mice, fumur, 60 min) of 3.98±0.94 IA%/g and a biodistribution (ICR male mice, fumur, 120 min) of 3.03±0.07 IA%/g. The biodistribution (ICR male mice, fumur, 240 min) was 1.82±0.22 IA%/g, the biodistribution (ICR male mice, heart, 5 min) was 2.31±0.55 IA%/g and the biodistribution (ICR male mice, heart, 15 min) was 2.17±0.46 IA%/g. It also gave a biodistribution (ICR male mice, heart, 30 min) of 0.84±0.14 IA%/g, a biodistribution (ICR male mice, heart, 60 min) of 0.44±0.08 IA%/g and a biodistribution (ICR male mice, heart, 120 min) of 0.23±0.02 IA%/g. The biodistribution (ICR male mice, heart, 240 min) was 0.16±0.02 IA%/g, the biodistribution (ICR male mice, kidney, 5 min, n=2) was 12.61±2.42^a IA%/g and the biodistribution (ICR male mice, kidney, 15 min) was 10.94±2.26 IA%/g. It also gave a biodistribution (ICR male mice, kidney, 30 min) of 3.62±0.24 IA%/g, a biodistribution (ICR male mice, kidney, 60 min) of 1.13±0.20 IA%/g and a biodistribution (ICR male mice, kidney, 120 min) of 0.63±0.05 IA%/g. It also gave a biodistribution (ICR male mice, kidney, 240 min) of 0.19±0.03 IA%/g, a biodistribution (ICR male mice, liver, 5 min) of 13.86±4.17 IA%/g and a biodistribution (ICR male mice, liver, 15 min) of 8.24±0.60 IA%/g. For the same substance, the biodistribution (ICR male mice, liver, 30 min) was 2.58±0.31 IA%/g, the biodistribution (ICR male mice, liver, 60 min) was 1.06±0.10 IA%/g and the biodistribution (ICR male mice, liver, 120 min) was 0.97±0.06 IA%/g. For the same substance, the biodistribution (ICR male mice, liver, 240 min) was 0.32±0.02 IA%/g, the biodistribution (ICR male mice, lung, 5 min, n=2) was 3.96±0.79^a IA%/g and the biodistribution (ICR male mice, lung, 15 min) was 7.05±1.41 IA%/g. For the same substance, the biodistribution (ICR male mice, lung, 30 min) was 2.47±1.49 IA%/g, the biodistribution (ICR male mice, lung, 60 min) was 1.23±0.20 IA%/g and the biodistribution (ICR male mice, lung, 120 min) was 0.75±0.08 IA%/g. For the same substance, the biodistribution (ICR male mice, lung, 240 min) was 1.18±0.43 IA%/g, the biodistribution (ICR male mice, muscle, 5 min) was 1.43±0.12 IA%/g and the biodistribution (ICR male mice, muscle, 15 min) was 1.89±0.16 IA%/g. For the same substance, the biodistribution (ICR male mice, muscle, 30 min) was 1.68±0.42 IA%/g, the biodistribution (ICR male mice, muscle, 60 min) was 2.21±0.79 IA%/g and the biodistribution (ICR male mice, muscle, 120 min) was 0.82±0.08 IA%/g. The biodistribution (ICR male mice, muscle, 240 min) was 0.47±0.10 IA%/g, the biodistribution (ICR male mice, pancreas, 5 min) was 6.92±2.62 IA%/g and the biodistribution (ICR male mice, pancreas, 15 min) was 5.55±0.48 IA%/g. The biodistribution (ICR male mice, pancreas, 30 min) was 1.93±0.46 IA%/g, the biodistribution (ICR male mice, pancreas, 60 min) was 0.66±0.06 IA%/g and the biodistribution (ICR male mice, pancreas, 120 min) was 0.47±0.03 IA%/g. For the same substance, the biodistribution (ICR male mice, pancreas, 240 min) was 0.44±0.12 IA%/g, the biodistribution (ICR male mice, spleen, 5 min) was 2.40±0.56 IA%/g and the biodistribution (ICR male mice, spleen, 15 min) was 3.52±0.43 IA%/g. The biodistribution (ICR male mice, spleen, 30 min) was 1.44±0.23 IA%/g, the biodistribution (ICR male mice, spleen, 60 min) was 0.66±0.10 IA%/g and the biodistribution (ICR male mice, spleen, 120 min) was 0.47±0.05 IA%/g. The biodistribution (ICR male mice, spleen, 240 min) was 0.24±0.02 IA%/g, the biodistribution (ICR male mice, stomach, 5 min) was 5.48±2.05 IA%/g and the biodistribution (ICR male mice, stomach, 15 min) was 6.68±1.47 IA%/g. For the same substance, the biodistribution (ICR male mice, stomach, 30 min) was 2.78±0.87 IA%/g, the biodistribution (ICR male mice, stomach, 60 min) was 1.52±0.23 IA%/g and the biodistribution (ICR male mice, stomach, 120 min) was 1.35±0.33 IA%/g. For the same substance, the biodistribution (ICR male mice, stomach, 240 min) was 0.97±0.12 IA%/g, the biodistribution (ICR male mice, testicle, 5 min) was 1.23±0.31 IA%/g and the biodistribution (ICR male mice, testicle, 15 min) was 1.24±0.13 IA%/g. The biodistribution (ICR male mice, testicle, 30 min) was 0.87±0.05 IA%/g, the biodistribution (ICR male mice, testicle, 60 min) was 0.32±0.08 IA%/g and the biodistribution (ICR male mice, testicle, 120 min) was 0.58±0.07 IA%/g. The biodistribution (ICR male mice, testicle, 240 min) was 0.23±0.01 IA%/g.
